A value given as a limit tells only on which side of the number the result lay.

Protein sequences, listed by entry. Tags and fused reporters are not part of them. Residues count along the entry.
UniProt P53779, 40-402 limits assumed: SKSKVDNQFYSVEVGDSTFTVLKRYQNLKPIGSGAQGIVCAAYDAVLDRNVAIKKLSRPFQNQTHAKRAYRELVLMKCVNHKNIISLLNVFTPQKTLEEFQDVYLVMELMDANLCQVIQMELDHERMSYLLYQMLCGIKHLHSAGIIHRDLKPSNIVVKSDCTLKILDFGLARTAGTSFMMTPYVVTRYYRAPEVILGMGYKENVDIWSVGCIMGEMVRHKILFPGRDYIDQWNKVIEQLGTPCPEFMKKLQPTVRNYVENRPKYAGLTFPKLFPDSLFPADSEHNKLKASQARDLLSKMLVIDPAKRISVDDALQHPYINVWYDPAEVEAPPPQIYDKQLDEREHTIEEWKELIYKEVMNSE

Five compounds from patent US7361665B2, “Inhibitors of c-Jun N-terminal kinases (JNK) and other protein kinases” (Vertex Pharmaceuticals Incorporated, priority 2002, dated 2008) can be followed below.

In the assay the target is JNK3 (Homo sapiens, UniProt P53779). Put plainly: JNK inhibition assay (spectrophotometric coupled-enzyme assay). Format: biochemical. As to conditions: read-out: JNK3 Activity (Ki rating); activated JNK3 10 nM, 10 μM ATP, 30° C. An excerpt:
A BLAST search of the EST database using the published JNK3α1 cDNA as a query identified an EST clone (#632588) that contained the entire coding sequence for human JNK3α1. Polymerase chain reactions (PCR) using pfu polymerase (Strategene) were used to introduce restriction sites into the cDNA for cloning into the pET-15B expression vector at the NcoI and BamHI sites. The protein was expressed in E. coli. Due to the poor solubility of the expressed full-length protein (Met 1-Gln 422), an N-terminally truncated protein starting at Ser residue at position 40 (Ser 40) was produced. This truncation corresponds to Ser 2 of JNK1 and JNK2 proteins, and is preceded by a methionine (initiation) and a glycine residue. The glycine residue was added in order to introduce an NcoI site for cloning into the expression vector. In addition, systematic C-terminal truncations were performed by PCR to identify a construct that give rise to diffraction-quality crystals. One such construct encodes amino acid residues Ser40-Glu402 of JNK3α1 and is preceded by Met and Gly residues.
Five mg of JNK3 was diluted to 0.5 mg/ml in 50 mM HEPES buffer, pH 7.5, containing 100 mM NaCl, 5 mM DTT, 20 mM MgCl2 and 1 mM ATP. GST-MKK7(DD) was added at a molar ratio of 1:2.5 GST-MKK7:JNK3. After incubation for 30 minutes at 25° C., the reaction mixture was concentrated 5-fold by ultrafiltration in a Centriprep-30 (Amicon, Beverly, Mass.), diluted to 10 ml and an additional 1 mM ATP added. This procedure was repeated three times to remove ADP and replenish ATP. The final addition of ATP was 5 mM and the mixture incubated overnight at 4° C.
The activated JNK3/GST-MKK7(DD) reaction mixture was exchanged into 50 mM HEPES buffer, pH 7.5, containing 5 mM DTT and 5% glycerol (w/v) by dialysis or ultrafiltration. The reaction mixture was adjusted to 1.1 M potassium phosphate, pH 7.5, and purified by hydrophobic interaction chromatography (at 25° C.) using a Rainin Hydropore column. […] Activated JNK3 (i.e. doubly phosphorylated JNK3) was stored at −70° C. at 0.25-1 mg/ml.
Compounds were assayed for the inhibition of JNK3 by a spectrophotometric coupled-enzyme assay. In this assay, a fixed concentration of activated JNK3 (10 nM) was incubated with various concentrations of a potential inhibitor dissolved in DMSO for 10 minutes at 30° C. in a buffer containing 0.1 M HEPES buffer, pH 7.5, containing 10 mM MgCl2, 2.5 mM phosphoenolpyruvate, 200 μM NADH, 150 μg/mL pyruvate kinase, 50 μg/mL lactate dehydrogenase, and 200 μM EGF receptor peptide. The EGF receptor peptide has the sequence […] (SEQ ID NO: 3), and is a phosphoryl acceptor in the JNK3-catalyzed kinase reaction. The reaction was initiated by the addition of 10 μM ATP and the assay plate is inserted into the spectrophotometer's assay plate compartment that was maintained at 30° C. The decrease of absorbance at 340 nm was monitored as a function of time. The rate data as a function of inhibitor concentration was fitted to competitive inhibition kinetic model to determine the Ki.
The compound numbers correspond to the compound numbers in Tables 1-3.
As for `Clc1ccc(Nc2nccc(-c3cnc(C4CCCCC4)o3)n2)cc1`, the Ki was over 1000 nM.

Take `Clc1cccc(Cl)c1Cc1ncc(-c2ccnc(NC3CCCCC3)n2)[nH]1`: the inhibition constant (Ki) is under 100 nM.

`COCn1cc(-c2ccnc(Nc3cccc(OC)c3)n2)nc1-c1ccccc1`: the Ki is over 1000 nM.

Regarding `Cc1nc(-c2cccs2)sc1-c1ccnc(Nc2ccc(F)cc2)n1`, the Ki was in the range of 100 to 1000 nM.

For `Fc1ccc(Nc2nccc(-c3cnc(Cc4c(Cl)cccc4Cl)[nH]3)n2)cc1`, the Ki lay within 100 to 1000 nM.
